Reference: ChEMBL document CHEMBL2150959, “Histamine H3 receptor as a drug discovery target” (J Med Chem, 2011)

Chains of the proteins cited; added tags and fusions are not shown. Lines headed by an entry give the natural chain unless they say otherwise; changes in a name come on top.
UniProt Q9Y5N1: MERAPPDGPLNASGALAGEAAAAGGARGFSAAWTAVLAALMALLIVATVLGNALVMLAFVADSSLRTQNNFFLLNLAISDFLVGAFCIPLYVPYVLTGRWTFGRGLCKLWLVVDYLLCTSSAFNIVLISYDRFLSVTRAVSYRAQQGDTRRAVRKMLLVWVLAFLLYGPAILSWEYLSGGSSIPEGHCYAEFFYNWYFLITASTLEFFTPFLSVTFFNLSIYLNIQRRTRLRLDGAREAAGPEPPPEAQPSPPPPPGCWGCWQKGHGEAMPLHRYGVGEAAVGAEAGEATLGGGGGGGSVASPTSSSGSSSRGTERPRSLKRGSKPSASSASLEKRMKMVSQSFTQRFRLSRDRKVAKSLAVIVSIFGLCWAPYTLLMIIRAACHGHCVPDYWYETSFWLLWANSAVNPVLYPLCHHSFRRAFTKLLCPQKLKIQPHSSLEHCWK
UniProt Q9QYN8: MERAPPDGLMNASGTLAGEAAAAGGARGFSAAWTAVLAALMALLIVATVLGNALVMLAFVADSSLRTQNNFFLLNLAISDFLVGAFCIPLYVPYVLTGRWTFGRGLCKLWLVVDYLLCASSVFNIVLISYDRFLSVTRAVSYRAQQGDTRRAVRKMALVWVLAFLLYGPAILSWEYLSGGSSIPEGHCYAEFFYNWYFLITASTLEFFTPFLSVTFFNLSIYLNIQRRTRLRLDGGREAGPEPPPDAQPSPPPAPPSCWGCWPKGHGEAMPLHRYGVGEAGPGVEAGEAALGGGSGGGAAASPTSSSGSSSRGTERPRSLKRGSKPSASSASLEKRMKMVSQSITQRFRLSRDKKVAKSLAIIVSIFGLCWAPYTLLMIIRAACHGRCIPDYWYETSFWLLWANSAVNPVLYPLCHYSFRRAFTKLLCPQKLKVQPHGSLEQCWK

What was measured:
Histamine H3 receptor [1] = target: Histamine H3 receptor (Homo sapiens, UniProt Q9Y5N1); experiment: Binding affinity to human histamine H3 receptor
Histamine H3 receptor [2] = target: Histamine H3 receptor (Rattus norvegicus, UniProt Q9QYN8); experiment: Binding affinity to rat cortical histamine H3 receptor

| SMILES | Ki (Histamine H3 receptor [1]) [nM] | Ki (Histamine H3 receptor [2]) [nM] |
| --- | --- | --- |
| C[C@@H](NC(=O)c1ccco1)C(=O)N1CCN(CCCOc2ccc(C(=O)C3CC3)cc2)CC1 | 100 |  |
| C[C@H]1CC[C@H](C)N1CCCOc1ccc(-c2ccc(C(=O)N3CCOCC3)cc2)cc1 (single isomer, unassigned) [A-349,821] |  | 0.398 |
